Assay [1] deals with Histone deacetylase 1 (Homo sapiens, UniProt Q13547). Briefly: Inhibition of HDAC1 in human HL-60 cells assessed as increase in histone H3 acetylation at […] incubated for 24 hrs by Western blot analysis. The assay is classed as cell-based. The note with it: dose 0.25 µM.
Assay [2] has as its target T1, Protein deacetylase HDAC6 (Homo sapiens) (UniProt Q9UBN7).
T1 sequence (whole entry): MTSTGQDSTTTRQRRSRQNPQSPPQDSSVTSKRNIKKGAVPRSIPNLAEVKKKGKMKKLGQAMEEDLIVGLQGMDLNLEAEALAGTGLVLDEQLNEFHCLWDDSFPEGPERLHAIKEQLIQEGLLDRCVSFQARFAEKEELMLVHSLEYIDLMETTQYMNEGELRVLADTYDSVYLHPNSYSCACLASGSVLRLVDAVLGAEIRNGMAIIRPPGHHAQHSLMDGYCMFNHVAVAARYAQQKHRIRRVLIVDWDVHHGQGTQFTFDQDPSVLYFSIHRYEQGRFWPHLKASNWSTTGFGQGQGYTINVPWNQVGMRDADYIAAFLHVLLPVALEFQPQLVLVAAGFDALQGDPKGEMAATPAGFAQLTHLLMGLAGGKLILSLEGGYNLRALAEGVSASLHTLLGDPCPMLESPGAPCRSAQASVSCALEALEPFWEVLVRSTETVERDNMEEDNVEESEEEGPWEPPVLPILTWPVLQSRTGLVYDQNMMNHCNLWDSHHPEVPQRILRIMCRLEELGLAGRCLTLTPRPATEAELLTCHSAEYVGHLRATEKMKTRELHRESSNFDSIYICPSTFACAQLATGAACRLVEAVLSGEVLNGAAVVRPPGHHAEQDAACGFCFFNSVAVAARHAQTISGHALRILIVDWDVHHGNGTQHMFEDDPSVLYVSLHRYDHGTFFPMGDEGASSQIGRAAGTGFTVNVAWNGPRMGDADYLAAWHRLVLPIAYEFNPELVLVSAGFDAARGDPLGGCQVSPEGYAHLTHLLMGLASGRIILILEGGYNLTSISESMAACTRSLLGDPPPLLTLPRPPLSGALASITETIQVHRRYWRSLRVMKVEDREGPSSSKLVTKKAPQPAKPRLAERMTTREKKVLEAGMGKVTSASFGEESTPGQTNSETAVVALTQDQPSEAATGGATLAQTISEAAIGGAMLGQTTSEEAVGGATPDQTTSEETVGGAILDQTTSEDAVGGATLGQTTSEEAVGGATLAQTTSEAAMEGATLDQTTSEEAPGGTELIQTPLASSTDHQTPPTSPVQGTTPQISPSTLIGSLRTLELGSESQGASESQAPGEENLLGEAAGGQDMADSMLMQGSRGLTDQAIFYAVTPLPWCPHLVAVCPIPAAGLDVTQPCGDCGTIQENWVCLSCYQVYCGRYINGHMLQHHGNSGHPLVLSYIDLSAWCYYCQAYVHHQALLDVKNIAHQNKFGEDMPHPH
Briefly: Inhibition of HDAC6 in human HL-60 cells assessed as increase in alpha-tubulin acetylation at […] incubated for 24 hrs by Western blot analysis. The assay is classed as cell-based. The note with it: dose 0.25 µM.

Chains of the proteins cited; added tags and fusions are not shown.
UniProt Q13547, whole entry: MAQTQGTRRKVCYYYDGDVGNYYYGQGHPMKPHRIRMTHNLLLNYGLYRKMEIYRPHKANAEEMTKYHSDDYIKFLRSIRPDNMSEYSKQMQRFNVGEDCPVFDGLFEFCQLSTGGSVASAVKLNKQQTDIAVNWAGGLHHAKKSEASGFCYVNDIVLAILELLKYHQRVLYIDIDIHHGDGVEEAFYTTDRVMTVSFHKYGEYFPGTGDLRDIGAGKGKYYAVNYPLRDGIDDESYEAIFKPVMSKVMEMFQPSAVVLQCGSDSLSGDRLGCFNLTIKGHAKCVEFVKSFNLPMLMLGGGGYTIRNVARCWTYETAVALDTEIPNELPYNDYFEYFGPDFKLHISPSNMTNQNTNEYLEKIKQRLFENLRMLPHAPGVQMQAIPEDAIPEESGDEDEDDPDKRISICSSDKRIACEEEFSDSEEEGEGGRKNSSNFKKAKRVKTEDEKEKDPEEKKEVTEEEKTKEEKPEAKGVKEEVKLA

Structures are written as SMILES. Active and inactive are the calls of the source. The rule behind the calls is not given here.

In ChEMBL document CHEMBL6083289, “Deciphering the Therapeutic Potential of Novel Pentyloxyamide-Based Class I, IIb HDAC Inhibitors against Therapy-Resistant Leukemia” (J Med Chem, 2024) one finds inhibition data, which are given here for 3 compounds.

On to `O=C(CCCCCONC(=O)c1nc(-c2ccc(N3CCCC3)cc2)cs1)NO`, for which the inhibition result in assay [1] and in assay [2] was “Active” throughout.

As to `O=C(CCCCCONC(=O)c1nc(-c2cc3ccccc3o2)cs1)NO`, the inhibition entry in assay [1] and in assay [2] was “Active” each time.

As for `COc1ccc(-c2csc(C(=O)NOCCCCCC(=O)NO)n2)cc1`, the inhibition entry in assay [1] and in assay [2] was “Active” each time.
